This data set in a line: in vitro. The data set is classed as cell-based. On the procedure: The cells were assayed for cell viability by using a cytoflowmeter (FACSCAN) after the cells were stained with propidium iodine. […]

`CC(C)[C@]12O[C@H]1[C@@H]1O[C@]13[C@]1(O[C@H]1C[C@H]1C4=C(CC[C@@]13C)C(=O)OC4)[C@@H]2O` [triptolide] displayed a viability at 72 hr, 1 ng/ml of 89.3%.

Usually viability stands for a per cent measure of how many cells are alive, often set against a control. Low readings indicate a greater loss of cells, high ones better survival.
